Literature values as cited in US20140242599A1, “MATERIALS AND METHODS FOR DETERMINING SENSITIVITY POTENTIAL OF COMPOUNDS” (ELECTROPHORETICS LIMITED, priority 2011, published 2014).

Details: words printed in the LLNA EC3 column; cited from earlier work

Q: With `O=[N+]([O-])c1ccc(S(=O)(=O)O)c([N+](=O)[O-])c1` as the compound, how does the “LLNA outcome / sensitizer potency class” value read?
A: (strong)
